The entries are a selection whose mix differs from that of the whole data set. Results filed as inconclusive are left out. The source made the active and inactive calls. Calls come from the whole dose curve; as a rule, active = well fitted inhibition curve with a large enough effect; inconclusive = small, poorly fitted or top-dose-only effect; inactive = no such curve, though single readings can be large or run the other way.
Experiment: qHTS Assay for Inhibitors of the ERK Signaling Pathway using a Homogeneous Screening Assay; note: nearly all actives have a fitted effect of over 55% in size
Conditions: HEK293-V1b, vasopressin-stimulated pERK AlphaScreen; at 57.5 µM unless noted
% is set by controls: 0 for no effect and ±100 for the full control effect.

SMILES | activity, negative = inhibition
O=C(OC1CN2CCC1CC2)C1c2ccccc2Oc2ccccc21 (stereo not given) | inactive: 10.2%
CCOP(=O)(Cl)Cl | inactive: 3.51%
NC1CCCCC1.NP(=O)(O)N(CCCl)CCCl | inactive: -2.27% [at 11.5 µM]
N#CC1(Nc2ccccc2)CCN(CCc2ccccc2)CC1 | inactive: 20%
ClCCOP(OCCCl)OCCCl | inactive: 5.85%
N/C(=N\O)c1c(N)no[n+]1[O-] | inactive: 6.61%
CCOc1ncccc1C(=O)NCC1(N2CCOCC2)CCCCC1 | inactive: -29.1%
O=C(O)C1(Nc2ccccc2)CCN(Cc2ccccc2)CC1 | inactive: 7.38% [at 11.5 µM]
CCC(CO)(C(=O)OC1CN2CCC1CC2)c1ccccc1 (stereo not given) | inactive: 9.39%
Fc1ccccc1NC1CCN(Cc2ccccc2)CC1 | inactive: -17.2%
